Measurements taken from paper PMC6271771, “4-Amino-substituted Benzenesulfonamides as Inhibitors of Human Carbonic Anhydrases” (Molecules, 2014).

By UniProt entry, the sequences of proteins in these tests, tags left out. Residues count along the entry.
UniProt O43570, 30-289 limits assumed: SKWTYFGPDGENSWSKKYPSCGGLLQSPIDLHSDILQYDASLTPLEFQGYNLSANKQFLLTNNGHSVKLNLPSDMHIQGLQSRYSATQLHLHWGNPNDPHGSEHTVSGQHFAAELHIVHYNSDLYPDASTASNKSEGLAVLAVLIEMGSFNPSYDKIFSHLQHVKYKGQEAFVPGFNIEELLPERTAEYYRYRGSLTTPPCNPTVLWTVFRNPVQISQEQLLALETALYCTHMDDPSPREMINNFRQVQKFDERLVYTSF
UniProt P23280, 18-308: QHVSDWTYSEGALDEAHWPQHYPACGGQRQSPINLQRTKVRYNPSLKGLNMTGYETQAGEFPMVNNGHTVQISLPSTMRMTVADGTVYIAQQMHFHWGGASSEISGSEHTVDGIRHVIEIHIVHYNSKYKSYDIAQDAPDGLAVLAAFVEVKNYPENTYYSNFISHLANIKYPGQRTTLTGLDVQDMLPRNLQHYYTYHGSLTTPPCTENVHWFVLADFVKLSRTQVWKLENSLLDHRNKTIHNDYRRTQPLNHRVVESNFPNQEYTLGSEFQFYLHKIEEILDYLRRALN

Assays:
[1] = target: CA XII (Homo sapiens, UniProt O43570); experiment: Fluorescent thermal shift assay (FTSA), CA XII; assay type: binding; parameters: made in house; conditions: pH 7.0, 37 °C, read-out: Compound Dissociation Constants Kd for CA XII
[2] = target: T1, CA VI (Homo sapiens, UniProt P23280); experiment: Fluorescent thermal shift assay (FTSA), CA VI; assay type: binding; conditions: Kd (FTSA) versus Ki of ref 35
T1 construct: made in house

Nc1ccc(S(N)(=O)=O)cc1 [Compound 1, 4-Aminobenzene-1-sulfonamide, reference compound]
Kd [1]: 67 µM
difference between own Kd and Ki of Murakami and Sly, CA VI [2]: 5.7 times
